## Measured affinities in a library of Ab-14 heavy chain variants

All variants were tested on one target, the spike HR2 peptide PDVDLGDISGINAS (SARS-CoV-2).

Ab-14 is the parent antibody, in scFv form: VH, then the linker GGGGSGGGGSGGGGS, then VL. The light chain is unchanged in all variants.
VH: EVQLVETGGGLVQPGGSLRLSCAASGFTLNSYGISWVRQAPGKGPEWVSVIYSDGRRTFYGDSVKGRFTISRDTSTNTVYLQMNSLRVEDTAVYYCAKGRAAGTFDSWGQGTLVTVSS
VL: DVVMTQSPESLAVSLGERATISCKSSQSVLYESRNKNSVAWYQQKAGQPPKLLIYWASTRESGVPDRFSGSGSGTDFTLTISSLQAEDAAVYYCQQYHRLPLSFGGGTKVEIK

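The parent was found by panning a naive human phage display library on the peptide. Designed CDR sequences, proposed from the first random library and measured here. Several design methods are mixed in this list. AlphaSeq pools MATa yeast showing the antibodies with MATalpha yeast showing the peptide. Binding brings cells together so that they mate, and sequencing counts the barcode pairs among the diploids. The ratio of observed to expected reads was calibrated, replicate by replicate, on BCL2-family standards whose Kd was known from biolayer interferometry. Each pool was mated in six replicate cultures.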

Changes read parent residue, position, new residue, counted from the first residue of the VH shown. This list holds designs with at most six substitutions. Affinities are written as log10 Kd with Kd in nM; a lower number is a better binder. A mean of the replicates is given; it leaves out those without a signal. "no signal" marks a missing value. The strain was present, yet no cells mated with the target were sequenced in any replicate, which points to weak or no binding. As a blank, each scFv also met three strains without target: over all heavy chain designs, 1% of these pairings were detected, typically at 2.08 and seldom below 0.84. For each scFv, signals with the empty controls are counted beside the result. The authors' rule: three or more of the six replicates give a measured affinity, fewer mean a poor binder. The parent sequence was in this pool as ten entries: three were never detected, three once, and four in most replicates, with averages from 0.34 to 2.37. Values of this round are not directly comparable with the first-round values of the same sequences.

S31E+G61H+A101F+S107N: 1.37 (6 of 6 replicates; controls 0 of 18).
T28S+S31E+R56K+R100K: 0.42 (6 of 6 replicates; controls 0 of 18).
T28S+S31E+G61C+R100Q+S107R: 1.69 (6 of 6 replicates; controls 0 of 18).
N30D+G61I+D106W: 2.07 (4 of 6 replicates; controls 0 of 18).
T28N+S63A+R100K+A101T: 0.48 (6 of 6 replicates; controls 0 of 18).
T28N+L29M+G61S: 0.98 (4 of 6 replicates; controls 0 of 18).
T28W+N30D+S53A+G61Q+S63E: no signal (0 of 6 replicates; controls 0 of 18).
F27Y+S31E+A101T+S107K: 1.84 (5 of 6 replicates; controls 0 of 18).
G61T+R100M+A101Q: 1.00 (6 of 6 replicates; controls 0 of 18).
T28D+S63N+A101T+S107D: 0.14 (6 of 6 replicates; controls 0 of 18).
S63K+D106R: no signal (0 of 6 replicates; controls 0 of 18).
T28P+R56I+G61D+R100Q+A101L+A102Y: 1.23 (6 of 6 replicates; controls 2 of 18).
N30D+F105K+D106L: no signal (0 of 6 replicates; controls 0 of 18).
T28N+G61A+R100H: 1.24 (1 of 6 replicates; controls 0 of 18).
S31M+G61Q+R100Y: 2.72 (1 of 6 replicates; controls 0 of 18).
T28W+S31D+G61A+A101T+S107E: 0.95 (5 of 6 replicates; controls 0 of 18).
N30D+G61S+R100Q: 1.41 (3 of 6 replicates; controls 0 of 18).
S31E+F59W+D106I: no signal (0 of 6 replicates; controls 1 of 18).
R56Q+G61S+A101T: 0.21 (6 of 6 replicates; controls 1 of 18).
I34R+T104S: no signal (0 of 6 replicates; controls 0 of 18).
T28S+S63N+A101M: 0.72 (6 of 6 replicates; controls 0 of 18).
T28N+S63Q+R100Q: 1.26 (4 of 6 replicates; controls 0 of 18).
T28S+R100Q+S107F: 1.59 (6 of 6 replicates; controls 0 of 18).
S63Q+A101E+S107T: 0.82 (6 of 6 replicates; controls 0 of 18).
S31E+F59M+G61S+A101C: 2.04 (1 of 6 replicates; controls 0 of 18).
N30K+S31E+K65N+G103F+F105K: no signal (0 of 6 replicates; controls 0 of 18).
F27E+T28K+N30D+R56M: 1.46 (1 of 6 replicates; controls 0 of 18).
N30Q+K65R+S107T: 1.36 (6 of 6 replicates; controls 0 of 18).
T28D+I34Y+K65E+R100G: no signal (0 of 6 replicates; controls 1 of 18).
S31E+V64Y+G103A+F105P: no signal (0 of 6 replicates; controls 0 of 18).
S31D+G61K+D106V: no signal (0 of 6 replicates; controls 0 of 18).
T28D+S31C+R100E: 1.30 (6 of 6 replicates; controls 0 of 18).
T28K+G61D+R100Q: no signal (0 of 6 replicates; controls 0 of 18).
T28S+S63Q+R100K: 2.11 (1 of 6 replicates; controls 0 of 18).
G26Y+T28N+A101T: 0.36 (6 of 6 replicates; controls 0 of 18).
G61I+R100E+A101Q: 1.74 (5 of 6 replicates; controls 0 of 18).
T28E+S31Q+T104R+F105T: no signal (0 of 6 replicates; controls 0 of 18).

Excerpt, the final 2 entries:

changes,"log10 Kd (nM), mean",seen in,control signals
G61I+R100E+A101Q,1.74,5 of 6,0 of 18
T28E+S31Q+T104R+F105T,no signal,0 of 6,0 of 18

Values reported by Li et al. 2023, doi:10.1038/s41467-023-39022-2 (FLAb copy).